These are literature values, as cited in patent publication US5776946A, “Peripheral benzodiazepine receptor ligands as antiinflammatory agents” (priority 1995, dated 1998).

Protein sequences, listed by entry. Tags and fused reporters are not part of them.
UniProt P30536, whole entry: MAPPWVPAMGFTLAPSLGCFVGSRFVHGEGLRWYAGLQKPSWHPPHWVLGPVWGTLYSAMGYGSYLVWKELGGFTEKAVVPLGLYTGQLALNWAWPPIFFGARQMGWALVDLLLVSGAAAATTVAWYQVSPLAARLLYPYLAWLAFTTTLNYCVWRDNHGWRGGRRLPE

SMILES strings stand for the structures.

As a reminder, the Ki is the dissociation constant of the complex between target and ligand, obtained from inhibition or displacement.

This data set addresses T1, peripheral benzodiazepine receptors in brain (Homo sapiens, UniProt P30536).
T1 construct: In brain, this has been determined to be 3.5 nM for PK 11195 itself; host or cells: brain (Doble et al., 1987)
The settings on record: read-out: ability to displace bound PK 11195 from peripheral benzodiazepine receptors (Ki); cited from earlier work.

Turning to `O=C1CN=C(c2ccccc2Cl)c2cc([N+](=O)[O-])ccc2N1` [clonazepam], the inhibition constant Ki was 46 µM.
